Literature values, collected in patent US8071641B2, “Treating or preventing diabetes with cannabidiol” (Yissum Research Development Company of the Hebrew …, priority 2004, dated 2011).

By UniProt entry, the sequences of proteins in these tests, tags left out.
UniProt P21554, whole entry: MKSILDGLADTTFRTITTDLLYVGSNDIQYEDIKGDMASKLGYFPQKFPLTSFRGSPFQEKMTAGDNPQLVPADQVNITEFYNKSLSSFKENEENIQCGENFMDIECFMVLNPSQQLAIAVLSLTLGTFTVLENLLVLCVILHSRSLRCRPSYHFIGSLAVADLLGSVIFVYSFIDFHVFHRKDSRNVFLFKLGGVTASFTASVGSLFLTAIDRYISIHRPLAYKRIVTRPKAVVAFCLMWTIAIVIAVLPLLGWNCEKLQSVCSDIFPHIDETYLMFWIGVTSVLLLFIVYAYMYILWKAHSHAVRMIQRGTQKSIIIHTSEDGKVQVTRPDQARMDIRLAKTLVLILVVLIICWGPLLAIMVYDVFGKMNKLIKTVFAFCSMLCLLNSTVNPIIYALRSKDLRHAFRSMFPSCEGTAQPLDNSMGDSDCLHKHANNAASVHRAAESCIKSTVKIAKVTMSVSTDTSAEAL

Biological target: brain receptor CB1 (Homo sapiens, UniProt P21554)
Conditions: cited from earlier work

In the case of `C=C(C)[C@@H]1CCC(C)=C[C@H]1c1c(O)cc(CCCCC)cc1O` [CBD, Cannabidiol], the “binding to brain receptor CB1” value is listed as “does not bind”.
